The text below walks through data of US11401376B2, “Chemical compounds for coating of nanostructures” (Spago Nanomedical AB, priority 2017, dated 2022).

Entries after “also recorded” stand apart in the source; their conditions may differ.

Data set [1] in a line: Heat treatment, loss of coating (Example 17). The class given is physicochemical. The note with it: coated nanostructures, 80° C. for 30 minutes, washed on 10 kDa filter, Si/P ratio by ICP-OES. The protocol: The sample was moved to a 20 mL flask and degassed by three N2-vacuum cycles and was then kept under N2. The sample was heated in a silicon oil bath at 80° C. for 30 minutes and was then cooled to ambient room temperature. A reference aliquot was withdrawn (A). The remaining sample was washed with four times with milliQ water on a 10 kDa Vivaspin 6 centrifugation filter (Sartorious). A reference aliquot (B) was withdrawn from the retentate. Reference aliquots A, and B were analyzed with ICP-OES.

The nature of data set [2]: Calcium induced aggregation of the coated nanostructures (Example 15). The settings on record: for Ca resistance: coated nanostructures, 0-8 mM CaCl2, 10 mM Tris-HCl 150 mM NaCl pH 7.4, 1 h room temperature. The class given is physicochemical. As for the experimental part: Volumes of nanostructure were added to 1 ml aliquots of 10 mM Tris-HCl 150 mM NaCl pH 7.4 containing 0, 0.5, 1, 2, 4 and 8 mM CaCl2) in microcentrifuge tubes so that the final concentration of phosphorus was 0.5 mM. The samples were vortexed, incubated at room temperature for 1 h and centrifuged for 10 min at 12000×g. The supernatants (700 μl) were removed and analyzed by ICP for phosphorus concentrations. The phosphorus concentrations were normalized to the concentration in corresponding samples without CaCl2) and plotted as ‘% remaining in solution’ against the concentration of CaCl2) in the reaction mixture. When 90% or more remains in solution the material is considered robust against calcium induced aggregation.

Data set [3] is described as follows: Stability of coated nanostructures on manganese loading / process conditions (GFC, Example 18). The format is physicochemical. As for the experimental part: 200 ml of the crude solution of coated nanostructures of Example 13b was added a solution of 0.256 g MnCl2.4H2O dissolved in 2.56 ml ethylene glycol. The pH was adjusted to 4.07 with 1 M NaOH. The manganese solution was added to the reaction. An aliquot A was taken out. The reaction was heated at 100° C. for 25 h 30 min after which the temperature descended to ambient room temperature. An aliquot B was withdrawn.

Data set [4] is described as follows: Solubility of the coated nanostructure product (Example 14).
Where [5] appears, read: statement in text referring to example 14.

Regarding “1-[ω-methyl-(ethyleneoxy)12-20 methyl]-3,5-bis[(prop-3-triethoxysilyl-1-yl)oxy]benzene [Compound 6]”, in data set [1], the Loss of coating came to 0%. Further, in data set [2], the Ca resistance result is listed as “Y (When 90% or more remains in solution the material is considered robust against calcium induced aggregation)”. Further, in data set [2] (setting [5]), the “calcium ion induced aggregation” value was “prevent calcium ion induced aggregation”. In data set [3], the “stability of coated nanostructures under the coating / process conditions” value is reported as “robust; also recorded: good result”.

Turning to “1-[ω-methyl-(ethyleneoxy)12-20 methyl]-3,5-bis[(but-4-triethoxysilyl-1-yl)oxy]benzene [Compound 26]”, the Loss of coating in data set [1] came to 0%.

In the case of “1,3-bis[ω-methyl-(ethyleneoxy)12-20methyl]-4,6-bis[(prop-3-triethoxysilyl-1-yl)oxy]benzene [Compound 20]”, in data set [4] (setting [5]), the “solubility of the coated nanostructures” value was “form gels”.

Take “1-[ω-methyl-(ethyleneoxy)12-20 methyl]-3,5-bis(eth-2-triethoxysilyl-1-yl)benzene [Compound 33]”: the Loss of coating in data set [1] was determined as 0%.

With “1-[ω-methyl-(ethyleneoxy)12-20 methyl]-3,5-bis(prop-3-triethoxysilyl-1-yl)benzene [Compound 38]”, in data set [1], the Loss of coating was 1%. Besides, the Soluble product result in data set [4] (nanostructures coated with the coating precursor, ethyleneglycol/water, heated 20 h) is given as “partial”.

Regarding “4-[ω-methyl-(ethyleneoxy)12-20]hepta-1,6-diene [Compound 43]”, in data set [2], the Ca resistance result was “Y (When 90% or more remains in solution the material is considered robust against calcium induced aggregation)”.

Turning to “5,5′-bis[ω-methyl-(ethyleneoxy)12-20 methyl]-3,3′-bis[(prop-3-triethoxysilyl-1-yl)oxy]-1,1′-biphenyl [Compound 14]”, in data set [1], the Loss of coating was found to be 0%. For the same substance, the Ca resistance entry in data set [2] is listed as “Y (When 90% or more remains in solution the material is considered robust against calcium induced aggregation)”.
